This is an account of results in PMC7017074, “Krebs Cycle Intermediate-Modified Carbonate Apatite Nanoparticles Drastically Reduce Mouse Tumor Burden and Toxicity by Restricting Broad Tissue Distribution of Anticancer Drugs” (Cancers, 2020).

This data set can be described thus: Animal biodistribution study (organ and tumor distribution of DOX). In kind it is in vivo, Balb/c mice. The note with it: 4T1 tumor mice, IV DOX 5 mg/kg, 2 h.

The compound `COc1cccc2c1C(=O)c1c(O)c3c(c(O)c1C2=O)C[C@@](O)(C(=O)CO)C[C@@H]3O[C@H]1C[C@H](N)[C@H](O)[C@H](C)O1` [Free DOX, doxorubicin] had a DOX in brain of 0.29 ± 0.02 ng/mg.
